pKi: −log10 of the molar value.
Experiments:
[1] = target: T1, Muscarinic acetylcholine receptor DM1 (Drosophila melanogaster, UniProt P16395); experiment: Displacement of [3H]QNB from Drosophila melanogaster mAChR by scintillation counting
[2] = target: T1, Muscarinic acetylcholine receptor DM1; experiment: Displacement of [3H]AF-DX 384 from Drosophila melanogaster mAChR by scintillation counting

SMILES: Br.CN1[C@@H]2C[C@@H](OC(=O)[C@H](CO)c3ccccc3)C[C@H]1[C@@H]1O[C@@H]12.O.O.O [SCOPOLAMINE HYDROBROMIDE]
- pKi [1]: 8.96
- pKi [2]: 9.15

— ChEMBL document CHEMBL3046823, “Insect muscarinic acetylcholine receptor: pharmacological and toxicological profiles of antagonists and agonists” (J Agric Food Chem, 2007)
